The chains behind the UniProt entries cited, without tags or fusion partners.
UniProt P11416, whole entry: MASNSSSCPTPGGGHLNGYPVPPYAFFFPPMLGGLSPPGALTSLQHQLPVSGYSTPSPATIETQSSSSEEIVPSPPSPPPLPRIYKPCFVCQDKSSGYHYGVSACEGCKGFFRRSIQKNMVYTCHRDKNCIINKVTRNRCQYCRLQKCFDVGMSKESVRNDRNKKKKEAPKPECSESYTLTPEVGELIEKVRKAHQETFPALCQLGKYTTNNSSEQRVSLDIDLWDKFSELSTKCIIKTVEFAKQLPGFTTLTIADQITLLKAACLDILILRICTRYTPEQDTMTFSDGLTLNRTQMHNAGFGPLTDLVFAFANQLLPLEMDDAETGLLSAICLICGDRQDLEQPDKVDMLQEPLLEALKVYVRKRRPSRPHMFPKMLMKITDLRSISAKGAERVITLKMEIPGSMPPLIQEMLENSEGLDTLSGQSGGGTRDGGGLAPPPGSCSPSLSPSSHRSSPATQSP

According to ChEMBL document CHEMBL1129630, “Synthesis and structure-activity relationships of retinoid X receptor selective diaryl sulfide analogs of retinoic acid” (J Med Chem, 1996):

Biological target: Retinoic acid receptor alpha (Mus musculus, UniProt P11416)
Assay: Dissociation constant for binding to Retinoic acid receptor alpha
Type: single protein
In short: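 Competitive binding assays against each receptor subtype, with Kd values taken from competition.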

Kd [nM] | SMILES
7 | CC1=C(/C=C/C(C)=C\C=C\C(C)=C\C(=O)O)C(C)(C)CCC1 [ALITRETINOIN]
15 | CC1=C(/C=C/C(C)=C/C=C/C(C)=C/C(=O)O)C(C)(C)CCC1 [TRETINOIN]
